Laboratory results taken from publication PMC6834639.

Biological target: T1, dDdS Aβ (1–10)
T1 chain: DAEFRHDSGY
Assay: native MS; IM-MS of oligomers of one Aβ fragment alone; Aβ (1–10) and Aβ (1–16) 600 µM, 10 mM NH4OAc; oligomers of many sizes seen, a printed size is the largest one
Conditions: remark: other sources report otherwise

stoichiometry N: 12
B1: dDdS Aβ (1–10) (peptide)
peptide: DAEFRHDSGY
modifications: here or on the partner: D-aspartic acid and D-serine at the underlined Asp and Ser residues (D1, D7, S8 by the letters); D-aspartic acid and D-serine at the underlined Asp and Ser residues (D1, D7, S8 by the letters)
